This assay deals with Kappa-type opioid receptor (Cavia porcellus) (UniProt P41144). In words: Ratio measured as the Ki(kappa) to that of Ki(mu) values.

Protein sequences, listed by entry. Tags and fused reporters are not part of them. Lines headed by an entry give the natural chain unless they say otherwise; changes in a name come on top.
UniProt P41144: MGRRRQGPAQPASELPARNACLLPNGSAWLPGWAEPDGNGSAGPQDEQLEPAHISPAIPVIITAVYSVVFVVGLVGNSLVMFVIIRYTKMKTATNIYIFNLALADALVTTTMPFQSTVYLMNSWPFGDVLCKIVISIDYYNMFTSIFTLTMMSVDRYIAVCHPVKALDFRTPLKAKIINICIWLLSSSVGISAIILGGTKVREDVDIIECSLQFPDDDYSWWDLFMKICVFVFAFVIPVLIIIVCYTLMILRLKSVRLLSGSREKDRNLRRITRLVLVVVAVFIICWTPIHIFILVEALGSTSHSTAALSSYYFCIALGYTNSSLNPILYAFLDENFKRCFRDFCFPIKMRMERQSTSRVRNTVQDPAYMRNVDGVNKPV

Consider `CC1c2cccc3cccc(c23)C1C(=O)N(C)[C@H]1CCC2(CCCO2)C[C@@H]1N1CCNC1` (some centres undefined), for which the Ratio came to 227.
With `CN(C(=O)Cc1cccc2ccccc12)[C@H]1CCC2(CCCO2)C[C@@H]1N1CCCC1` (some centres undefined), the Ratio came out at 258.
Then `CN(C(=O)Cc1ccc(Cl)c(Cl)c1)C1CCCCC1N1CCCC1` (centres undefined), with 88; and `CN(C(=O)Cc1cccc2sccc12)[C@H]1CCCC[C@@H]1N1CCCC1`, with 11.

The values above are taken from ChEMBL document CHEMBL1125721, “Highly selective kappa opioid analgesics. 4. Synthesis of some conformationally restricted naphthalene derivatives with high receptor affinity and selectivity” (1991).
